Test results from patent US20020128256A1, “Methods for the treatment or prevention of inflammatory diseases characterized by abnormal cell proliferation” (priority 1997, published 2002).

Legend:
[1] = test system: NIH 3T3 mouse fibroblast cells; assay: Mitogenic Assay (mitogen-induced cell proliferation); format: cell-based; settings: for IC50: NIH3T3, read-out: Mitogenic Assay IC50; for inhibition at 10 µM: NIH3T3, read-out: Mitogenic Assay Inhibition (%)
A549 = assay: SRB antiproliferative assay, A549; format: cell-based; settings: Homo sapiens, A549, read-out: SRB IC50

Row | SMILES | IC50 [1] [µM] | inhibition at 10 µM [1] [%] | IC50 (A549) [µM]
1 | O=C1CC(c2ccccc2)(c2ccccc2)c2ccccc21 [Compound 2, 3,3-Diphenylindanone] | 1.3 | 99 | 
2 | O/N=C1\CC(c2ccccc2)(c2ccccc2)c2ccccc21 [Compound 4, 1-N-Oxime-3,3-Diphenylindane] | 2.6 | 99 | 8.5
3 | CC(=O)OC1CC(c2ccccc2)(c2ccccc2)c2ccccc21 (centres unmarked) [Compound 7, 1-Acetoxy-3,3-diphenylindane] | 3.4 | 98 | 
4 | N#CCC1C(=O)c2ccccc2C1(c1ccccc1)c1ccccc1 (centres unmarked) [Compound 9, 2-cyanomethyl-3,3-diphenylindanone] |  | 45 | 
5 | NC(=O)CC1C(=O)c2ccccc2C1(c1ccccc1)c1ccccc1 (centres unmarked) [Compound 12, 2-Acetamide-3,3-diphenylindanone] |  | 31 | 
6 | O=C1c2ccccc2C(c2ccccc2)(c2ccccc2)C1CCCO (centres unmarked) [Compound 19, 3-(3′,3′-diphenyl-2′-indanyl-1′-one)propanol] | 1.5 | 99 | 
